# Patent publication US5094857A, “Treatment of acne or androgenetic alopecia by topical administration of ethisterone” (priority 1987, dated 1992)
# Columns and labels:
# androgen receptor = androgen receptor (Mesocricetus auratus, UniProt A0A1U7QL32); assay: biochemical
# [1] = target: T1, androgen receptor preparations of sebaceous glands (Mesocricetus auratus, UniProt A0A1U7QL32); assay: Competitive binding analysis (displacement of tritium-marked R 1881); parameters: species or system Syrian hamster; conditions: displacement of 8 nM tritium-marked R 1881, FIG. 1
# T1 construct: [3H]R1881 displacement with excess triamcinolone acetate
# T1 sequence (A0A1U7QL32 1-900): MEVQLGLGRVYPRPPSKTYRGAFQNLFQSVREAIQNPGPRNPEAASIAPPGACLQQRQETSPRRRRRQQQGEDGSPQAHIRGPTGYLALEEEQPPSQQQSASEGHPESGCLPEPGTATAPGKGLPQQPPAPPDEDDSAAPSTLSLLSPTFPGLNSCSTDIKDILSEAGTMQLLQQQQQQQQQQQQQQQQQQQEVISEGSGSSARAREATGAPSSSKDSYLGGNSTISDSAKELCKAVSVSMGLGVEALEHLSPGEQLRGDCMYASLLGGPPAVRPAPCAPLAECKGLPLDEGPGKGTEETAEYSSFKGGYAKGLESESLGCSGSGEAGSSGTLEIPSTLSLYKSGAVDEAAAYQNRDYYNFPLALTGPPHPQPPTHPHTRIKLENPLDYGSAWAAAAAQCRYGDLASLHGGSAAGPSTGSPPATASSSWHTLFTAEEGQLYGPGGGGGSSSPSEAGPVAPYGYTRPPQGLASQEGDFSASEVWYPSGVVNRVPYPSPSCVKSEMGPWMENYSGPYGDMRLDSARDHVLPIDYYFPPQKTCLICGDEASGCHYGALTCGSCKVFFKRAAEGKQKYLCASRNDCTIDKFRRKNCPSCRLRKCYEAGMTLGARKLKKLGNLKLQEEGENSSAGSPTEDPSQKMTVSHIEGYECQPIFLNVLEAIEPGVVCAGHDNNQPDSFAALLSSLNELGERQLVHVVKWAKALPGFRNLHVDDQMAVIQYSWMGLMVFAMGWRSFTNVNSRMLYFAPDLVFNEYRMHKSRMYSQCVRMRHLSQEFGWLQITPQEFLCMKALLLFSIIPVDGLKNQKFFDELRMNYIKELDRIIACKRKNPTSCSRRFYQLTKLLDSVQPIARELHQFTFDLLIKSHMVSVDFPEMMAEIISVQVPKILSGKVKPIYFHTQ
smiles,measurement,setting,value
"C[C@]1(O)CC[C@H]2[C@@H]3CCC4=CC(=O)CCC4=C3C=C[C@@]21C [R 1881, methyltrienolone]",Kd,androgen receptor,2.92 nM
same,in vitro affinity at 50% blocking (rank order),[1],"R 1881, 17-alpha-PM, ethisterone, CPA, SL and dexamethasone"
